Reference: patent EP0513703A2, “Carbamate esters of eseroline having anticholinesterase activity, a process for their preparation and relative pharmaceutical compositions containing them as the active principle” (priority 1991, dated 1992)
Several values for one entry are separate records, joined by “and”; a condition that tells them apart may be missing. Identical values can stand only once.

Tests used:
Set-up in all cases: species or system Wistar male rats
Settings in all cases: rat, 20 minutes after oral administration
acetylcholinesterase = assay: In vivo anticholinesterase activity in brain and serum (class E derivatives)
[1] = test system: acetylcholinesterase (AchE); assay: In vivo anticholinesterase activity in brain and serum, Ellman method (class D derivatives)
[2] = test system: acetylcholinesterase (AchE); assay: In vivo anticholinesterase activity in brain and serum, Ellman method (class A derivatives)
[3] = 0.4 mg/kg/os, listed as PHISOSTIGMINE, 0.4 mg/kg
[4] = 3.5 mg/kg/os, listed as MGS 101, 3.5 mg/kg

## CN1CC[C@@]2(C)c3cc(OC(=O)NCCCCCCCCNC(=O)Oc4ccc5c(c4)[C@]4(C)CCN(C)[C@@H]4N5C)ccc3N(C)[C@@H]12
acetylcholinesterase; 0.1 mg/kg/os
  INHIBITION % OF ACETYLCHOLINESTERASE AVERAGE VALUE ± EXPERIMENTAL ERROR brain: 16.14 ± 9.43%
  INHIBITION % OF ACETYLCHOLINESTERASE AVERAGE VALUE ± EXPERIMENTAL ERROR serum: 21.42 ± 3.57%
acetylcholinesterase; 0.15 mg/kg/os
  INHIBITION % OF ACETYLCHOLINESTERASE AVERAGE VALUE ± EXPERIMENTAL ERROR brain: 38.52 ± 6.41%
  INHIBITION % OF ACETYLCHOLINESTERASE AVERAGE VALUE ± EXPERIMENTAL ERROR serum: 27.34 ± 6.22%
acetylcholinesterase; 0.2 mg/kg/os
  INHIBITION % OF ACETYLCHOLINESTERASE AVERAGE VALUE ± EXPERIMENTAL ERROR brain: 56.12 ± 7.21%
  INHIBITION % OF ACETYLCHOLINESTERASE AVERAGE VALUE ± EXPERIMENTAL ERROR serum: 52.36 ± 11.3%
acetylcholinesterase; 0.25 mg/kg/os
  INHIBITION % OF ACETYLCHOLINESTERASE AVERAGE VALUE ± EXPERIMENTAL ERROR brain: 83.40 ± 12.62%
  INHIBITION % OF ACETYLCHOLINESTERASE AVERAGE VALUE ± EXPERIMENTAL ERROR serum: 76.81 ± 8.38%

## CNCCCCCCCNC(=O)Oc1ccc2c(c1)[C@]1(C)CCN(C)[C@@H]1N2C [MGF001, (3a S-cis) - 1,2,3,3a,8,8a hexahydro - 1,3a,8 - trimethyl pyrrol [2,3-b]-indol-5-ol-N-methyl-aminoheptyl carbamate ester]
[1]; 1 mg/kg/os
  INHIBITION % OF ACETYLCHOLINESTERASE AVERAGE VALUE ± EXPERIMENTAL ERROR brain: 14.48 ± 4.25%
  INHIBITION % OF ACETYLCHOLINESTERASE AVERAGE VALUE ± EXPERIMENTAL ERROR serum: 19.23 ± 2.28%
[1]; 1.5 mg/kg/os
  INHIBITION % OF ACETYLCHOLINESTERASE AVERAGE VALUE ± EXPERIMENTAL ERROR brain: 31.11 ± 3.41%
  INHIBITION % OF ACETYLCHOLINESTERASE AVERAGE VALUE ± EXPERIMENTAL ERROR serum: 36.58 ± 1.53%
[1]; 2 mg/kg/os
  INHIBITION % OF ACETYLCHOLINESTERASE AVERAGE VALUE ± EXPERIMENTAL ERROR serum: 53.31 ± 7.47%
[1]; 2 mg/kg/os, listed as MGF 001, 2 mg/kg
  INHIBITION % OF ACETYLCHOLINESTERASE AVERAGE VALUE ± EXPERIMENTAL ERROR brain: 59.3 ± 11.20%

## CNC(=O)Oc1ccc2c(c1)[C@]1(C)CCN(C)[C@@H]1N2C [Physostigmine, physostigmine, reference compound]
[2]; 0.2 mg/kg/os
  INHIBITION % OF ACETYLCHOLINESTERASE AVERAGE VALUE ± EXPERIMENTAL ERROR brain: 16.72 ± 1.26%
  INHIBITION % OF ACETYLCHOLINESTERASE AVERAGE VALUE ± EXPERIMENTAL ERROR serum: 10.56 ± 1.45%
[2]; 0.3 mg/kg/os
  INHIBITION % OF ACETYLCHOLINESTERASE AVERAGE VALUE ± EXPERIMENTAL ERROR brain: 38.17 ± 9.21%
  INHIBITION % OF ACETYLCHOLINESTERASE AVERAGE VALUE ± EXPERIMENTAL ERROR serum: 33.32 ± 6.43%
[2]; [3]
  INHIBITION % OF ACETYLCHOLINESTERASE AVERAGE VALUE ± EXPERIMENTAL ERROR brain: 52.30 ± 8.12% and 52.30 ± 9.12%
  INHIBITION % OF ACETYLCHOLINESTERASE AVERAGE VALUE ± EXPERIMENTAL ERROR serum: 55.21 ± 11.95% and 55.11 ± 11.95%
[1]; 0.2 mg/kg/os
  INHIBITION % OF ACETYLCHOLINESTERASE AVERAGE VALUE ± EXPERIMENTAL ERROR brain: 16.23 ± 3.41%
  INHIBITION % OF ACETYLCHOLINESTERASE AVERAGE VALUE ± EXPERIMENTAL ERROR serum: 17.12 ± 2.36%
[1]; 0.3 mg/kg/os
  INHIBITION % OF ACETYLCHOLINESTERASE AVERAGE VALUE ± EXPERIMENTAL ERROR brain: 29.22 ± 4.36%
  INHIBITION % OF ACETYLCHOLINESTERASE AVERAGE VALUE ± EXPERIMENTAL ERROR serum: 34.78 ± 6.83%
[1]; 0.4 mg/kg/os
  INHIBITION % OF ACETYLCHOLINESTERASE AVERAGE VALUE ± EXPERIMENTAL ERROR brain: 56.31 ± 7.35%
  INHIBITION % OF ACETYLCHOLINESTERASE AVERAGE VALUE ± EXPERIMENTAL ERROR serum: 51.28 ± 5.49%
acetylcholinesterase; 0.2 mg/kg/os
  INHIBITION % OF ACETYLCHOLINESTERASE AVERAGE VALUE ± EXPERIMENTAL ERROR brain: 11.31 ± 6.36%
  INHIBITION % OF ACETYLCHOLINESTERASE AVERAGE VALUE ± EXPERIMENTAL ERROR serum: 14.63 ± 2.33%
acetylcholinesterase; 0.3 mg/kg/os
  INHIBITION % OF ACETYLCHOLINESTERASE AVERAGE VALUE ± EXPERIMENTAL ERROR brain: 33.67 ± 2.44%
  INHIBITION % OF ACETYLCHOLINESTERASE AVERAGE VALUE ± EXPERIMENTAL ERROR serum: 29.4 ± 3.41%
acetylcholinesterase; 0.4 mg/kg/os
  INHIBITION % OF ACETYLCHOLINESTERASE AVERAGE VALUE ± EXPERIMENTAL ERROR brain: 54.23 ± 8.17%
  INHIBITION % OF ACETYLCHOLINESTERASE AVERAGE VALUE ± EXPERIMENTAL ERROR serum: 59.4 ± 7.56%

## CC[C@H](C)[C@H](NC(=O)Oc1ccc2c(c1)[C@]1(C)CCN(C)[C@@H]1N2C)C(=O)O [MGS101]
[2]; 1.5 mg/kg/os
  INHIBITION % OF ACETYLCHOLINESTERASE AVERAGE VALUE ± EXPERIMENTAL ERROR brain: 20.31 ± 3.12%
  INHIBITION % OF ACETYLCHOLINESTERASE AVERAGE VALUE ± EXPERIMENTAL ERROR serum: 17.4 ± 2.14%
[2]; 2.5 mg/kg/os
  INHIBITION % OF ACETYLCHOLINESTERASE AVERAGE VALUE ± EXPERIMENTAL ERROR brain: 41.60 ± 1.64%
  INHIBITION % OF ACETYLCHOLINESTERASE AVERAGE VALUE ± EXPERIMENTAL ERROR serum: 37.31 ± 4.86%
[2]; [4]
  INHIBITION % OF ACETYLCHOLINESTERASE AVERAGE VALUE ± EXPERIMENTAL ERROR brain: 53.8 ± 11.25% and 53.8 ± 1.64%
  INHIBITION % OF ACETYLCHOLINESTERASE AVERAGE VALUE ± EXPERIMENTAL ERROR serum: 60.44 ± 7.38% and 60.44 ±4.86%
[2]; 4.5 mg/kg/os
  INHIBITION % OF ACETYLCHOLINESTERASE AVERAGE VALUE ± EXPERIMENTAL ERROR brain: 76.42 ± 9.38%
  INHIBITION % OF ACETYLCHOLINESTERASE AVERAGE VALUE ± EXPERIMENTAL ERROR serum: 79.31 ± 3.81%
